Measurements as given in patent US11382898B2, “BAX activators and uses thereof in cancer therapy” (Albert Einstein College of Medicine, priority 2017, dated 2022).

Sequences of proteins named here, by UniProt entry; tags and fusion partners are left off. Residues count along the entry.
UniProt Q07812, whole entry: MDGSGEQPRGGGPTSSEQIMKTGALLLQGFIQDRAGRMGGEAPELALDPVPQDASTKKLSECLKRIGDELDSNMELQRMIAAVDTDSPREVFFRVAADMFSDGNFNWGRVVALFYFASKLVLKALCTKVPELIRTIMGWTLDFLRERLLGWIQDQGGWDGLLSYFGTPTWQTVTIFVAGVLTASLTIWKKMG
UniProt Q07817, 1-212 limits assumed: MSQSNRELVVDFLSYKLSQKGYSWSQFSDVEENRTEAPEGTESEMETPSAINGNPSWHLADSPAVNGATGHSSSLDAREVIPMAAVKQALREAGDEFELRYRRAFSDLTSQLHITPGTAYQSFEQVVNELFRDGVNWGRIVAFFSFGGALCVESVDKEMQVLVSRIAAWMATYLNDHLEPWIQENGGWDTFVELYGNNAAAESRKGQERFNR

Key:
BAX [1] = target: T1, BAX (Homo sapiens, UniProt Q07812)
[2] = test system: human acute myeloid leukemia cell lines HL60, THP-1, NB4, OCI-AML3 and U937; experiment: Cell viability assay of AML cell lines (CellTiter-Glo)
BAX [3] = target: T1, BAX; experiment: Competitive fluorescence polarization assay, FITC-BIM SAHBA2 from the BAX trigger site; assay type: binding; design: with serial dilutions of full-length BAX, BCL-XLΔC, MCL-1ΔNΔC, BFL-1/A1ΔC; made in house; host or cells: Escherichia coli
Protocol: (§1) Fluorescence polarization assays (FPA) were performed as previously described (Gavathiotis et al., 2012). Firstly, direct binding isotherms were generated by incubating FITC-BIM SAHBA2 (50 nM) with serial dilutions of full-length BAX, BCL-XLΔC, MCL-1ΔNΔC, BFL-1/A1ΔC and fluorescence polarization was measured at 20 minutes on a F200 PRO microplate reader (TECAN). Subsequently, in competition assays, a serial dilution of small molecule or acetylated BIM SAHBA2 (Ac-BIM SAHB) was combined with FITC-BIM SAHBA2 (50 nM), followed by the addition of recombinant protein at ˜EC75 concentration, as determined by the direct binding assay (BAX: 500 nM; BCL-XLΔC, MCL-1ΔNΔC, BFL-1/A1ΔC: 200 nM).
(§2) A competitive fluorescence polarization assay that evaluates the capacity of compounds to compete a fluorescein-labeled stapled peptide of the BIM BH3 helix, FITC-BIM SAHBA2, from the BAX trigger site, was used to determine the binding potency (Gavathiotis et al., 2008; Gavathiotis et al., 2012).

BCL-XL = target: T2, BCL-XL (Homo sapiens, UniProt Q07817); experiment: Competitive fluorescence polarization assay, FITC-BIM SAHBA2 bound to BCL-XL; assay type: binding
T2 construct: BCL-XLΔC, MCL-1ΔNΔC, BFL-1/A1ΔC: 200 nM; made in house; host or cells: Escherichia coli
Protocol: as §1, §2

MCL-1 = experiment: Competitive fluorescence polarization assay, FITC-BIM SAHBA2 bound to MCL-1; assay type: binding, Human
Protocol: as §1, §2

[4] = test system: BAX KO MEF, DKO MEF, wild type MEF, H9c2 myocytes and 3T3 fibroblasts
[5] = test system: primary human AML and healthy control samples

How did the “effect on mitochondria in the absence of BAX” value (BAX [1]) turn out when O=C1C(=NNc2nccs2)C(c2ccccc2)=NN1c1nc(-c2ccccc2)cs1 [BTSA1, 5-phenyl-2-(4-phenylthiazol-2-yl)-4-(2-(thiazol-2-yl)hydrazono)-2,4-dihydro-3H-pyrazol-3-one] was run?
Its value is “no effect”.

What about the EC50 ([2]; Homo sapiens, 24 h, read-out: mean effective concentration (EC50), viability) of the same compound?
The EC50 was 1000 to 4000 nM.

And the “time to substantial cell death activity” value ([2]; viability at different time points, 5 μM)?
Its value is no more than 6 h.

And the IC50 (BAX [3])?
Its IC50 is 250 nM.

And the “capacity to compete FITC-BIM SAHBA2 from BCL-XL” value (BCL-XL)?
Its value is “no capacity to compete”.

And the “capacity to compete FITC-BIM SAHBA2 from MCL-1” value (MCL-1)?
Its value is “no capacity to compete”.

What about the “response of BAX-expressing non-leukemia cells to treatment” value [4] of the same compound?
Its value is “resistance”.

What about the “response of cells with no BAX expression to treatment” value [4] of the same compound?
The value was “resistance”.

And the “activity in leukemic stem cell-enriched fractions (CD34+CD38−)” value [5]?
The value was “effective”.

And the “apoptosis in primary AML blast cells” value [5]?
Its value is “induced dose-dependent apoptosis”.

What about the “apoptosis of primary bone marrow CD34+CD38− cells from healthy donors” value [5] of the same compound?
The value was “did not affect apoptosis”.
